From patent US12187684B2, “Benzimidazole derivatives as modulators of retinoid-related orphan receptor gamma (RORγ) and pharmaceutical use thereof” (Jiangsu Hengrui Medicine Co., Ltd., priority 2018, dated 2025)

Sequences of proteins named here, by UniProt entry; tags and fusion partners are left off. Residues count along the entry.
UniProt P51449, 269-508 limits assumed: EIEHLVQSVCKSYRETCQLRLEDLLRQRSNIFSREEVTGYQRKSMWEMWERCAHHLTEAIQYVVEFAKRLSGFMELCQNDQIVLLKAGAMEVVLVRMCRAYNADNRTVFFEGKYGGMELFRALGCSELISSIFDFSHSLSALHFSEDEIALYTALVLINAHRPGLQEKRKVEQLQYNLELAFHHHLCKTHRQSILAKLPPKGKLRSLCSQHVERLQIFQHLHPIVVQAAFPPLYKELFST

System: IL-17 production, human PBMC cells
Experiment: IL-17 production assay using human PBMC
Conditions: read-out: IL-17 production (IC50 μM); human PBMC stimulated by cytostim for 3 days, IL-17 ELISA of supernatant
Excerpt: Test Example 2. IL-17 Production Assay Using Human PBMC
• 1. Human PBMC cells (Cat No. 70025.1, Zenbio) • 2. Lymphocyte medium (Cat No. LYMPH-1, Zenbio) • 3. TexMACS (Cat No. 130-097-196, Miltenyi) • 4. Cytostim-human (Cat No. 1130-092-173, Miltenyi) • 5. Human IL-17 ELISA (Cat No. D1700, R&D systems) • 6. Tecan Infinite M1000 plate reader (Tecan)
Experimental Procedure for IL-17 Production Assay
Cryopreserved peripheral blood human mononuclear cells (PBMCs) were rapidly thawed in warmed Lymphocyte media, and centrifuged cell suspension at 1000 rpm for 10 minutes. The supernatant was removed, and the cell pellets were gently resuspended in TexMACS media.
Human PBMC cells in TexMACS media were plated at 1×10^5 each well in triplicate. The test compounds at various concentrations or vehicle control (<0.5% DMSO) were added into cell culture. The cells were stimulated by cytostim (10 μL/mL) for 3 days in a humidified, 5% CO2 incubator at 37° C.
After incubation, the cell culture supernatant was harvested, and then removed particulates by centrifugation. Human IL-17 in the supernatant was measured using human IL-17 ELISA kit according to the manufacturer's protocol. IC50 values were determined using GraphPad Prism by plotting the compounds concentration versus percent inhibition.

Q: `CCS(=O)(=O)c1ccc(C(CO)c2nc3cc(Cl)c(N4CCC(F)(F)CC4)c(Cl)c3[nH]2)cc1` (single isomer, unassigned) [the longer retention time of 126-1 and 126-2] was tested. Which IC50 did it give?
A: 0.031 µM

Q: How did the IC50 turn out when `CCS(=O)(=O)c1ccc(C(CO)c2nc3cc(Cl)c(N4CCC(F)(F)CC4)c(Cl)c3[nH]2)cc1` (single isomer, unassigned) [the shorter retention time of 126-1 and 126-2] was run?
A: 0.045 µM

Q: For `CC(C)Oc1ccccc1-c1cc2nc(C(CO)c3ccc(S(=O)(=O)CC4CC4)cc3)[nH]c2cc1Cl` (single isomer, unassigned) [the longer retention time of 124-1 and 124-2], which IC50 is on record?
A: 0.041 µM

Q: With `CC(C)Oc1ccccc1-c1cc2nc(C(CO)c3ccc(S(=O)(=O)CC4CC4)cc3)[nH]c2cc1Cl` (single isomer, unassigned) [the shorter retention time of 124-1 and 124-2] as the compound, how does the IC50 read?
A: 0.024 µM

Target: RORγ LBD-GST tagged (Homo sapiens, UniProt P51449)
Experiment: LanthaScreen TR-FRET RORγ coactivator assay
Assay type: biochemical
Conditions: read-out: RORγ Coactivator Assay (IC50 μM), Fluorescein-D22 coactivator peptide, 1 hour room temperature

Q: For `CCS(=O)(=O)c1ccc(C(CO)c2nc3cc(Cl)c(N4CCC(F)(F)CC4)c(Cl)c3[nH]2)cc1` (single isomer, unassigned) [the longer retention time of 126-1 and 126-2], which IC50 is on record?
A: 0.036 µM

Q: How did the IC50 turn out when `CCS(=O)(=O)c1ccc(C(CO)c2nc3cc(Cl)c(N4CCC(F)(F)CC4)c(Cl)c3[nH]2)cc1` (single isomer, unassigned) [the shorter retention time of 126-1 and 126-2] was run?
A: 0.014 µM

Q: `CC(C)Oc1ccccc1-c1cc2nc(C(CO)c3ccc(S(=O)(=O)CC4CC4)cc3)[nH]c2cc1Cl` (single isomer, unassigned) [the longer retention time of 124-1 and 124-2] was tested. Which IC50 did it give?
A: 0.026 µM

Q: `CC(C)Oc1ccccc1-c1cc2nc(C(CO)c3ccc(S(=O)(=O)CC4CC4)cc3)[nH]c2cc1Cl` (single isomer, unassigned) [the shorter retention time of 124-1 and 124-2] was tested. Which IC50 did it give?
A: 0.07 µM
